Reference: ChEMBL document CHEMBL3217546, “The synthesis and receptor binding affinities of DDD-016, a novel, potential, atypical antipsychotic” (Medchemcomm, 2012)

Target: T1, Alpha-1A adrenergic receptor (Homo sapiens, UniProt P35348)
T1 sequence (P35348 whole entry): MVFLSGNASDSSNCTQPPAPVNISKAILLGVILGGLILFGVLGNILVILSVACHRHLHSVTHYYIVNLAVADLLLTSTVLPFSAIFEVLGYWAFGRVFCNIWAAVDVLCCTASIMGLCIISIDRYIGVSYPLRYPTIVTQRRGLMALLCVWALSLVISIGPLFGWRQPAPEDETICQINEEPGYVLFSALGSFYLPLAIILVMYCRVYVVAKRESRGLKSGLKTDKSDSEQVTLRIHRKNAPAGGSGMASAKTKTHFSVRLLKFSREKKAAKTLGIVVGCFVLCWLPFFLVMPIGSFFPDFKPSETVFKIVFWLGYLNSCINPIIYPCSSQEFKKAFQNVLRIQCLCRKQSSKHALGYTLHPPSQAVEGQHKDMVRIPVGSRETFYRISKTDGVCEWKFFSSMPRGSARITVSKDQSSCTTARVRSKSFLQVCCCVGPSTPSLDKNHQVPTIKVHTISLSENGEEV

In the case of `Cc1cc2c(s1)Nc1ccccc1N=C2N1CCN(C)CC1` [OLANZAPINE], the Ki is reported as 1 µM.
